# What was measured:
# carbonic anhydrase II = carbonic anhydrase II (Homo sapiens (Human), UniProt P00918); assay: Carbonic anhydrase II enzyme activity inhibition (4-NPA esterase activity); format: biochemical; settings: 4-nitrophenyl acetate esterase activity, absorbance at 405 nm
# [1] = test system: Human colon cancer HCT-116 cell lines; assay: Antitumor effect on tumor cells transplanted into mice 2; format: in vivo
# From the text: Human colon cancer HCT-116 cell lines were washed in PBS and suspended at a concentration of 4×10^7 cells/mL.
# TV(mm3)=(length×width^2)/2, wherein the unit of length and width is mm (equation D).
# When the TV reached 100 to 300 mm3, the animals were assigned to each group in accordance with a stratified randomization procedure. The day was considered day 1, the TV on the day was considered TV1, and the body weight on the day was considered BW1.
# A required amount of the test compound was weighed to prepare an administration solution.
Structure (SMILES),IC50 (carbonic anhydrase II) [µM],further results
"Nc1ncnc2c1c(C#Cc1c(F)cccc1OCC1CC1)cn2[C@@H]1O[C@H](CNS(N)(=O)=O)[C@@H](O)[C@H]1O [Example 86, 4-Amino-5-[2-[2-(cyclopropylmethoxy)-6-fluoro-phenyl]ethynyl]-7-[(2R,3R,4S,5R)-3,4-dihydroxy-5-[(sulfamoylamino)methyl]tetrahydrofuran-2-yl]pyrrolo[2,3-d]pyrimidine]",> 1,
"N#Cc1ccccc1C#Cc1cn([C@@H]2O[C@H](CNS(N)(=O)=O)[C@@H](O)[C@H]2O)c2ncnc(N)c12 [Example 49, 4-Amino-5-[2-(2-cyanophenyl)ethynyl]-7-[(2R,3R,4S,5R)-3,4-dihydroxy-5-[(sulfamoylamino)methyl]tetrahydrofuran-2-yl]pyrrolo[2,3-d]pyrimidine]",> 1,
"CCOc1cc(F)cc(F)c1C#Cc1cn([C@@H]2O[C@H](CNS(N)(=O)=O)[C@@H](O)[C@H]2O)c2ncnc(N)c12 [Example 35, 4-Amino-7-[(2R,3R,4S,5R)-3,4-dihydroxy-5-[(sulfamoylamino)methyl]tetrahydrofuran-2-yl]-5-[2-(2-ethoxy-4,6-difluoro-phenyl)ethynyl]pyrrolo[2,3-d]pyrimidine]",> 1,
"Nc1ncnc2c1c(C#Cc1c(F)cccc1F)cn2[C@@H]1O[C@H](CNS(N)(=O)=O)[C@@H](O)[C@H]1O [Example 1, 4-Amino-5-[2-(2,6-difluorophenyl)ethynyl]-7-[(2R,3R,4S,5R)-3,4-dihydroxy-5-[(sulfamoylamino)methyl]tetrahydrofuran-2-yl]pyrrolo[2,3-d]pyrimidine]",> 1,
"CSc1cccc(F)c1C#Cc1cn([C@@H]2C[C@H](CNS(N)(=O)=O)[C@@H](O)[C@H]2O)c2ncnc(N)c12 [Example 98, 4-Amino-7-[(1R,2S,3R,4R)-2,3-dihydroxy-4-[(sulfamoylamino)methyl]cyclopentyl]-5-[2-(2-fluoro-6-methylsulfanyl-phenyl)ethynyl]pyrrolo[2,3-d]pyrimidine]",> 1,
"Nc1ncnc2c1c(C#Cc1ncccc1F)cn2[C@@H]1O[C@H](CNS(N)(=O)=O)[C@@H](O)[C@H]1O [Example 88, 4-Amino-7-[(2R,3R,4S,5R)-3,4-dihydroxy-5-[(sulfamoylamino)methyl]tetrahydrofuran-2-yl]-5-[2-(3-fluoro-2-pyridyl)ethynyl]pyrrolo[2,3-d]pyrimidine]",> 1,
"Nc1ncnc2c1c(C#Cc1ccccc1)cn2[C@H]1C[C@H](O)[C@@H](COS(N)(=O)=O)O1 [Example 134, [(2R,3S,5R)-5-[4-Amino-5-(2-phenylethynyl)pyrrolo[2,3-d]pyrimidin-7-yl]-3-hydroxy-tetrahydrofuran-2-yl]methyl sulfamate]",> 1,
"CCOc1cccc(F)c1C#Cc1cn([C@@H]2O[C@H](CNS(N)(=O)=O)[C@@H](O)[C@H]2O)c2ncnc(N)c12 [Example 55, 4-Amino-7-[(2R,3R,4S,5R)-3,4-dihydroxy-5-[(sulfamoylamino)methyl]tetrahydrofuran-2-yl]-5-[2-(2-ethoxy-6-fluoro-phenyl)ethynyl]pyrrolo[2,3-d]pyrimidine]",> 1,"T/C15 ([1]; HCT-116 xenograft in mice, 50 mg/kg/day intravenous, administration days 1, 4, 8, 11, day 15): 26%; change of the body weight compared with the control ([1]; HCT-116 xenograft mice): within an acceptable degree; RTV comparison with the Comparative Example ([1]; HCT-116 xenograft, hydrochloride compound of Example 55, Aspin-Welch's t-test): significantly lower than that of the Comparative Example; RTV15 comparison with the control ([1]; HCT-116 xenograft, hydrochloride compound of Example 55, Dunnett's test): significantly lower than that of the control; BWC15 Mean ± SD ([1]; body weight change rate, HCT-116 xenograft in mice, 50 mg/kg/day intravenous, days 1, 4, 8, 11, day 15): −11.0 ± 9.6%"
"CSc1cccc(F)c1C#Cc1cn([C@@H]2C=C(CNS(N)(=O)=O)[C@@H](O)[C@H]2O)c2ncnc(N)c12 [Example 130, 4-Amino-7-[(1R,4R,5S)-4,5-dihydroxy-3-[(sulfamoylamino)methyl]cyclopent-2-en-1-yl]-5-[2-(2-fluoro-6-methylsulfanyl-phenyl)ethynyl]pyrrolo[2,3-d]pyrimidine]",> 1,

# From patent publication US9963456B2, “Pyrrolopyrimidine compound or salt thereof and compositions containing the pyrrolopyrimidine compound or salt thereof” (TAIHO PHARMACEUTICAL CO., LTD., priority 2014, dated 2018)
